How the values were obtained:
C. albicans (MYA-2876) = experiment: Confocal microscopy; format: cell-based, Candida albicans; conditions: 5× MIC, 24 h
[1] = test system: A. fumigatus (ATCC 1022) spores; conditions: NO donor (24 h pretreatment of spores) then butenafine

Row | SMILES | intracellular NO (DAF-2 DA fluorescence) (C. albicans (MYA-2876)) | propidium iodide fluorescence (cell death) (C. albicans (MYA-2876); relative to control sample) | hyphae formation (calcofluor white staining) (C. albicans (MYA-2876); relative to controls) | checkerboard classification [1] | ∑FIC [1]
1 | NCCCNCCCCN(CCCN)/[N+]([O-])=N/O [SPER/NO, spermine/NO] | increased NO levels within treated fungi | visual increase in PI fluorescence | marked decrease in hyphae formation | – | –
2 | NCCN(CCN)/[N+]([O-])=N/O [DETA/NO, diethylenetriamine/NO] | – | – | – | I (indifferent (I)) | ≥ 1

— publication PMC11121837, “Impact of Nitric Oxide-Release Kinetics on Antifungal Activity” (Journal of Fungi, 2024)
